The subject of assay [1] is chronic kidney disease. As to the kind of experiment: Example 2: ingestion by a person diagnosed with chronic kidney disease, dose switched 50 mg / 5 mg / 50 mg. Format: in vivo, human.
Assay [2] has as its system chronic kidney disease. As to the kind of experiment: Example 1: ingestion by a person with long-term chronic kidney disease. Type of assay: in vivo, human. The source says: A person suffering long-term from chronic kidney disease was examined. This person has not been diagnosed with diabetes. Urea nitrogen, serum creatinine, eGFR, and the diagnosis of chronic kidney disease on (1) Dec. 22, 2010 and on (2) Feb.

Where [3] appears, read: (e) after one month of returning to 50 mg aminolevulinic acid phosphate + 57.4 mg sodium ferrous citrate.

Regarding aminolevulinic acid phosphate, the Serum creatinine in the assay on chronic kidney disease [1] ((b) after one month of 50 mg aminolevulinic acid phosphate + 57.4 mg sodium ferrous citrate, before ingestion (a) 1.38) came out at 1.21 mg/dL; in the assay with chronic kidney disease [1] (setting [3]), 1.16 mg/dL; in the assay with chronic kidney disease [2] (2011/02/24, after 50 mg aminolevulinic acid phosphate + 57.4 mg sodium ferrous citrate each day for about seven weeks, before ingestion 2.77) it was 2.37 mg/dL. Further, the Urea nitrogen with chronic kidney disease [1] ((b) after one month of 50 mg aminolevulinic acid phosphate + 57.4 mg sodium ferrous citrate, before ingestion (a) 15.60) worked out at 14.00 mg/dL; in the assay on chronic kidney disease [1] (setting [3]), 13.10 mg/dL; with chronic kidney disease [2] (2011/02/24, after 50 mg aminolevulinic acid phosphate + 57.4 mg sodium ferrous citrate each day for about seven weeks, before ingestion (2010/12/22) 47.00), 37.00 mg/dL. For the same substance, the eGFR came out at 46.90 mL/min/1.73 m^2 in the assay on chronic kidney disease [1] ((b) after one month of 50 mg aminolevulinic acid phosphate + 57.4 mg sodium ferrous citrate, before ingestion (a) 40.60); 49.77 mL/min/1.73 m^2 in the assay with chronic kidney disease [1] (setting [3]); 16.70 mL/min/1.73 m^2 in the assay with chronic kidney disease [2] (2011/02/24, after 50 mg aminolevulinic acid phosphate + 57.4 mg sodium ferrous citrate each day for about seven weeks, before ingestion 13.80). Besides, in the assay with chronic kidney disease [2] (50 mg aminolevulinic acid phosphate + 57.4 mg sodium ferrous citrate each day, about seven weeks), the “chronic kidney disease (overall statement)” value is listed as “improved”. In the assay with chronic kidney disease [2] (2011/02/24, after 50 mg aminolevulinic acid phosphate + 57.4 mg sodium ferrous citrate each day for about seven weeks, before ingestion Fifth stage (renal failure)), the “Diagnosis of chronic kidney disease” value is “Fourth stage”.

Source of the values: US9475755B2, “Prophylactic agent for chronic kidney disease” (SBI Pharmaceuticals Co., Ltd., priority 2011, dated 2016).
